# pIC50: −log10 of the molar value.
# By UniProt entry, the sequences of proteins in these tests, tags left out. Where a name states a change or a piece, a line headed by the entry shows the natural chain unless it says otherwise.
# UniProt P14740: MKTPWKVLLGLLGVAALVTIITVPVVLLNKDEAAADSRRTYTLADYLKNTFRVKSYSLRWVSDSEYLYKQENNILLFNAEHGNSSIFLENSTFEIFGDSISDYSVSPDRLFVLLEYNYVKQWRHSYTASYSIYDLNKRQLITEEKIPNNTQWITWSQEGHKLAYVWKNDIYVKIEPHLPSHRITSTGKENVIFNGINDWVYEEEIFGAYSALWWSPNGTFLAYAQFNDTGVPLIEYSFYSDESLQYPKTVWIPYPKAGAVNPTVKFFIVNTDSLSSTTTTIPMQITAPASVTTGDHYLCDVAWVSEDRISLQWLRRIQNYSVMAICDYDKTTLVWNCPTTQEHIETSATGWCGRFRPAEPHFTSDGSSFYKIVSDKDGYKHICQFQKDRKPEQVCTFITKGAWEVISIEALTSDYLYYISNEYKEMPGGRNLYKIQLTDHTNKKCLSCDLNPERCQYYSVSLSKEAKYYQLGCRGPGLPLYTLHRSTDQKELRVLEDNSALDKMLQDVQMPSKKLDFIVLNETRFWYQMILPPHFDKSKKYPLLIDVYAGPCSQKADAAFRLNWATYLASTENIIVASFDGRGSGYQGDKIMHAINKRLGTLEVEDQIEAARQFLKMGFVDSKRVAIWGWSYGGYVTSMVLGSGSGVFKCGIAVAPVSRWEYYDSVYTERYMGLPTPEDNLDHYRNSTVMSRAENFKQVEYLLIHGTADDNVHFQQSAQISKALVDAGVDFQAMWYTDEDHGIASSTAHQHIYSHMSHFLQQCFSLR
# Biological target: Dipeptidyl peptidase 4 (Rattus norvegicus, UniProt P14740)
# Assay: Inhibition of DPP4 in rat plasma by fluorescence assay
# Type: cell-free
smiles,measurement,value
O=C([C@@H]1C[C@H](N2CCN(c3ccc([N+](=O)[O-])cc3)CC2)CN1)N1CCSC1,pIC50,8.66
